Source: patent US20030032774A1, “Novel opioid peptides for the treatment of pain” (priority 1994, published 2003)

The chains behind the UniProt entries cited, without tags or fusion partners.
UniProt P97266, whole entry, looked up: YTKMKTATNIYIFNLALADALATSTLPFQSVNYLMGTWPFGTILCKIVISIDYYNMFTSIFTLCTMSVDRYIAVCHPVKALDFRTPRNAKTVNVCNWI
UniProt P33535, whole entry: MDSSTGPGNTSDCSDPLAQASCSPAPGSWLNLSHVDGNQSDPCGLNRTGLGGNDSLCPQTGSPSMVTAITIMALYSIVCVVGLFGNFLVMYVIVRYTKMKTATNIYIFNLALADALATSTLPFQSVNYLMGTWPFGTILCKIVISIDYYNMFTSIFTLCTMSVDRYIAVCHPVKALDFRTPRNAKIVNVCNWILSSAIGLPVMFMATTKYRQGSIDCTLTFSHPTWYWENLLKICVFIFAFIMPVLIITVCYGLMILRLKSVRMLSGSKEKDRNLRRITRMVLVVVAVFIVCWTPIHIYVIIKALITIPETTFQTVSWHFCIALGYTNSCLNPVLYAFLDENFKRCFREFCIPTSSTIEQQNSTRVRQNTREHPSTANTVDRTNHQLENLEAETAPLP

What was measured:
μ receptors = μ receptors (Cavia porcellus, UniProt P97266); assay: Guinea Pig Ileum (GPI) assay, longitudinal muscle preparation; settings: Table 1
Procedure: The activity of the peptide compounds on μ receptors was determined using the Guinea Pig Ileum (GPI) assay (longitudinal muscle preparation) according to the procedures described in Schiller et al., Biophys. Res. Commun. 85:1322 (1975).

μ receptor = target: T1, μ receptor (Rattus norvegicus, UniProt P33535); assay: Radioligand binding assay, μ opioid receptor ((3H)-DAMGO, brain membranes); settings: Table 1
T1 construct: the brains (minus the cerebellum) were removed, placed in ice-cold saline solution, and then homogenized; from tissue; host or cells: rat brain (minus cerebellum) membranes
Procedure: PBQ (phenyl-ρ-benzoquinone) induced writhing in mice is an assessment of both central and peripheral analgesia (see Sigmund, et al., Proc. Soc. Exp. Biol. Med. 95:729 (1957)). Central analgesia is determined by the inhibition of a hot-plate response in mice (see, Wolfe, et al., J. Pharmacol. Exp. Ther. 80:300 (1944)). Assays measuring opioid receptor binding affinities for μ and δ receptors as well as the GPI assay were determined through experimental protocol set out in Schiller et al. (Biophys. Res. Commun. 85:1322 (1975)). The references by Sigmund, et al., Wolfe, et al., and Schiller, et al. are each hereby incorporated by reference.
Male Sprague-Dawley rats weighing between 350-450 g were sacrificed by inhalation of CO2. […] The pellets were re-suspended in approximately 6 ml/brain of ice-cold Tris buffer 50 mM pH 7.4 and stored at −78° C. until ready for use. Protein quantification of the brain homogenate was conducted according to protein assay kit purchased (Bio-Rad).
(^3H)-DAMGO and (^3H)-DAGLE were used as radioligands for the μ and δ receptors, respectively. […] Nonspecific binding was determined using a 500 fold excess of unlabeled ligand in the presence of tracer and membranes. […] The filters were dried and radioactivity was counted in a 24 well microplate in the presence of 500 μl scintillant per well. Radioactivity was measured using a Wallace 1450 Microbeta counter. […]

mice = assay: Lethal effects / safety in mice; settings: doses up to 20 mg/kg i.v.

Substance: H-Tyr-D-Ser-Phe-Phe-NH2 [BCH2463]
- IC50 (μ receptors): 13 nM
- Ki (μ receptor): 2.2 nM
- lethal effects upon mice (mice): did not exhibit any lethal effects
